{"source": "patent US4277479A", "about": "“Tetrazolylalkoxycarbostyril derivatives and pharmaceutical compositions containing them” (Otsuka Pharmaceutical Co., Ltd., priority 1978, dated 1981)", "target": "T1, cyclic AMP phosphodiesterase (Oryctolagus cuniculus, UniProt G1ST54)", "T1 construct": "the supernatant was collected to use it as a crude enzyme solution; from tissue; host or cells: rabbit platelets (from platelet-rich plasma)", "T1 sequence (G1ST54 1-1128)": "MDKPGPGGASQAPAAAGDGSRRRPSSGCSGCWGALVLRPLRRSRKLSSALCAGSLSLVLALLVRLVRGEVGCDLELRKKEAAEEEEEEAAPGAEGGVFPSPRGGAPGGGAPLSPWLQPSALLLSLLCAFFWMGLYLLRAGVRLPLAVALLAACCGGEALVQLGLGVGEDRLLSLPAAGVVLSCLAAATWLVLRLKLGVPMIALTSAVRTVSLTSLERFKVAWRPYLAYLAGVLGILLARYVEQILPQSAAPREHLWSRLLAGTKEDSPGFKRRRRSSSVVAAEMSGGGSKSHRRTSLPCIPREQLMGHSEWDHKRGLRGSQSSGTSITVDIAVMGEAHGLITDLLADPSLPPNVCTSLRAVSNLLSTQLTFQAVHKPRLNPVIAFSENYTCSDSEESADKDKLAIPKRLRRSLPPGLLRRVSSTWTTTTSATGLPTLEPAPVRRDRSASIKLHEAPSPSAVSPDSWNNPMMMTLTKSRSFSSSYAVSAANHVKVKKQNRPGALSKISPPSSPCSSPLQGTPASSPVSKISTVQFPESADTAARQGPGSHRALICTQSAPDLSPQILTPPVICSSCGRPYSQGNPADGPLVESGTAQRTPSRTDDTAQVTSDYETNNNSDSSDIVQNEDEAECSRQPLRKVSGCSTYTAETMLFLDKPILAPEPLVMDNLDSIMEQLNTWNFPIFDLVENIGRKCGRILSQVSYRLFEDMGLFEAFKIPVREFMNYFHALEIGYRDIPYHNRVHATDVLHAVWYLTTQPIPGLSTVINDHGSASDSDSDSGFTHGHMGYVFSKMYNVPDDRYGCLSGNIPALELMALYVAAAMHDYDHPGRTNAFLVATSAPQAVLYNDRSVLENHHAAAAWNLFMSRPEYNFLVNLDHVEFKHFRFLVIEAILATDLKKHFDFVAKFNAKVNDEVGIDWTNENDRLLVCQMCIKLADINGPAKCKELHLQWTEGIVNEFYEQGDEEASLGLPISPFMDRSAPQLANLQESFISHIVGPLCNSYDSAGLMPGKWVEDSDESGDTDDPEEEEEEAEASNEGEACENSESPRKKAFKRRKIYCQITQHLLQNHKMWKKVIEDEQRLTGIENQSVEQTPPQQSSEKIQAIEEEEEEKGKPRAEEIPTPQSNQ", "experiment": "Obstructive action against cyclic AMP phosphodiesterase", "type": "biochemical, rabbit", "parameters": "inhibition: dose or concentration left out as unconfirmed", "details": "read-out: Phosphodiesterase obstruction rate", "procedure": "(Test of obstructive action against cyclic AMP phosphodiesterase)\nThe obstructive action against cyclic AMP phosphodiesterase was measured according to the activity measuring method described in \"Biochimica et Biophysica Acta\", Vol. 429, pp. 485-497 (1976) and \"Biochemical Medicine\", Vol. 10, pp. 301-311 (1974).\nThat is, for determining the obstructive activity against cyclic AMP phosphodiesterase, 10 ml of a solution obtained by adding 1 mmol of MgCl2 into 50 mmol of tris-hydrochloric acid buffer with pH 7.4 was added to the platelets obtained by further centrifuging the above-said rabbit PRP at 3,000 r.p.m. for 10 minutes, and the suspended platelets were ground by a Teflon potter type homogenizer. This was followed by two times of freezing and thawing treatment and 300-second fracturing with 200 watt supersonic waves. After additional 60-minute centrifugation with 100,000 g, the supernatant was collected to use it as a crude enzyme solution. […]\nThe reaction system was then immersed in boiling water for 2 minutes to stop the reaction, and then this reaction solution was cooled in ice water and, for converting the produced tritium 5'-AMP into tritium adenosine, the solution was added with 0.05 ml (1 mg/ml) of snake poison as 5'-nucleotidase and reacted at 30° C. for 10 minutes. […] The whole quantity of the elutant was added with 10 ml of a triton-toluene type scintillator and the produced tritium adenosine was measured by a liquid scintillation counter to determine the phosphodiesterase activity.\nIn this way, the phosphodiesterase activation value (Vs) of the test compounds of the respective concentrations was determined, and the phosphodiesterase obstruction rate (%) was determined from said activation value (Vs) and control value (Vc) (obtained from water not containing any test compound) from the following formula: [formula]", "data": [{"molecule": "COc1ccc(Cc2nccc3cc(OC)c(OC)cc23)cc1OC", "note": "[Papaverine, papaverine, reference compound]", "values": [{"measurement": "inhibition", "result": 54.6, "unit": "%"}, {"measurement": "inhibition at 0.01 µM", "result": 7.2, "unit": "%"}, {"measurement": "inhibition at 1 µM", "result": 82.4, "unit": "%"}]}]}
